From paper PMC7269513 (Antimicrobial Agents and Chemotherapy, 2020)

Chains of the proteins cited; added tags and fusions are not shown. Residues count along the entry.
UniProt Q9F663, 25-293 limits assumed: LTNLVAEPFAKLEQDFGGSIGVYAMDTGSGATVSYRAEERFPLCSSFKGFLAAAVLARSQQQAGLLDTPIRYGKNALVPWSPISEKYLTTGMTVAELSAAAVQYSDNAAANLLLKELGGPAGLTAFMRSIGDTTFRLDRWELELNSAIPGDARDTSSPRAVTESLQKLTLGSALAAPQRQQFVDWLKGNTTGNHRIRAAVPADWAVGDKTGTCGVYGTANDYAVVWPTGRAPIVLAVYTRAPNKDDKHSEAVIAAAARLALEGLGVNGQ
UniProt C7C422, 29-270 limits assumed: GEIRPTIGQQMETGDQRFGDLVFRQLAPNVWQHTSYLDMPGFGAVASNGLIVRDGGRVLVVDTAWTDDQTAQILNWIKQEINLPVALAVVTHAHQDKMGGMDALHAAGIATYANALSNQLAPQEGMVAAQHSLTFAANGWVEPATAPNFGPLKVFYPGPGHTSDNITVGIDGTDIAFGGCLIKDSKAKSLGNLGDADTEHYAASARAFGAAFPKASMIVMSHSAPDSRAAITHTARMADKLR

Legend:
[1] = biological target: KPC-2 (Klebsiella pneumoniae, UniProt Q9F663); test: IC50 of beta-lactamase inhibition (nitrocefin hydrolysis); format: biochemical; conditions: IC50 (nM) of drug
[2] = biological target: NDM-1 (Klebsiella pneumoniae, UniProt C7C422); test: biochemical; conditions: Kd values for MBLs were based on Kis

## O=C(NC1CCNCC1)[C@@H]1CC[C@@H]2CN1C(=O)N2OS(=O)(=O)O [Relebactam, relebactam]
[1]
  IC50: 82 ± 17 nM

## O=C(O)c1c(F)ccc2c1OB(O)[C@@H]1C[C@H]21 [QPX7728]
[2]
  Kd: 32 ± 14 nM
